# Results taken from PubChem BioAssay AID1452 (National Center for Advancing Translational Sciences (NCATS), 2008).
# Sequences of proteins named here, by UniProt entry; tags and fusion partners are left off.
# UniProt P18054, whole entry: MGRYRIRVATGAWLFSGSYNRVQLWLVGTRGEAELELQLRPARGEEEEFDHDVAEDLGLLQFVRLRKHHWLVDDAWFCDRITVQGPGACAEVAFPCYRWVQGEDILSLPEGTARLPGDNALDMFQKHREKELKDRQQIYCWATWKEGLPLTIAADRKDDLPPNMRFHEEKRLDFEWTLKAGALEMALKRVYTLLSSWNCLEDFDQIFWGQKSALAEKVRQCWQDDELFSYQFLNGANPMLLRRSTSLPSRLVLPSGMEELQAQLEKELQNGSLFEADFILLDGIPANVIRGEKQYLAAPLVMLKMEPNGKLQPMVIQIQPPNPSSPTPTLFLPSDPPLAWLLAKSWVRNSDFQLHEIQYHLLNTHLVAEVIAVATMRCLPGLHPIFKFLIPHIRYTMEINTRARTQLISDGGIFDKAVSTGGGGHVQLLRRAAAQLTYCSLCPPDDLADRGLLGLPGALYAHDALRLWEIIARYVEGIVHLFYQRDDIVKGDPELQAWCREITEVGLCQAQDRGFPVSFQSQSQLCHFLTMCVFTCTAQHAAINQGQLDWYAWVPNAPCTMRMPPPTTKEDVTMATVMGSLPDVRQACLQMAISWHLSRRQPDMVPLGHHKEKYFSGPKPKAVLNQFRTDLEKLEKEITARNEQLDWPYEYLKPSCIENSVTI
# The entries are a selection whose mix differs from that of the whole data set. Calls of active or inactive are those of the source. The call rests on the fitted dose curve; in most records, active means well fitted inhibition curve with a large enough effect; inconclusive means small, poorly fitted or top-dose-only effect; inactive means flat fitted curve, though single readings scatter.
# Molecular target: Polyunsaturated fatty acid lipoxygenase ALOX12 (Homo sapiens) (UniProt P18054)
# Assay: qHTS Assay for Inhibitors of 12-hLO (12-human lipoxygenase); further: nearly all actives have a fitted effect of over 55% in size
# Settings: purified 12-hLO, xylenol orange hydroperoxide absorbance; at 57.1 µM (top of the series) unless noted
# From the text: Assay Provider: Holman, T.R., University of California, Santa Cruz Screening Center PI: Austin, C.P. Screening Center: NIH Chemical Genomics Center [NCGC] Human lipoxygenase 12hLO is a member of the closely related lipoxygenase family of enzymes which catalyze the site-specific oxidation of arachidonic acid to various hormone precursor molecules and as such is a candidate for drug development in a variety of disease areas, such as cancer and inflammation. Inhibition of 12hLO activity was screened by utilizing arachidonic acid as a substrate. The extent of hydroperoxide product formation was measured by a secondary chromogenic reaction in which xylenol orange (XO, Sigma-Aldrich, cat. number 39,818-7) reacts with the ferric ions produced from the reaction between the hydroperoxide and ferrous ions. The Fe(III)-XO complex is characterized with red-shifted absorbance at 560 nm. A purified preparation of human 12hLO was supplied by Professor Ted Holman, University of California, Santa Cruz.
# Assay Protocol: Buffer: 25 mM Hepes pH 7.0, 0.01% Triton X-100. Reagents/Controls: Buffer in columns 3 and 4 as negative control (no enzyme). Substrate solution: 40 uM arachidonic acid (Sigma-Aldrich, St. Louis, MO) final concentration dispensed throughout the plate. Enzyme: 150 nM 12hLO final concentration in columns 1, 2, 5-48. Column 1 is neutral (100% activity). Column 2 contained pin-transferred titration of NDGA (nordihidroguaiaretic acid, Sigma-Aldrich, N 5023, top concentration 20 mM in DMSO, then 1:3 dilution in duplicate). (Dilution factor: 23 nL into 4 uL.) Chromogenic detection reagent (divalent iron/xylenol orange, Fe-XO): 200 uM xylenol orange plus 300 uM ferrous ammonium sulfate prepared freshly in 50 mM sulfuric acid. Assay Steps: Three uL of enzyme were dispensed to 1536-well Greiner black clear bottom plates. Compounds and controls (23 nL) were transferred via Kalypsys PinTool. The plates were incubated for 15 min at room temperature, and then 1 uL of substrate solution was added to start the reaction. After room temperature incubation for 30 minutes, 4 uL of Fe-XO solution was added to each well and the plates were incubated for 30 min. The absorbance at 405 and 573 nm were measured using ViewLux (Perkin-Elmer) High-throughput CCD imager and absorbance protocol settings. The 573-to-405 absorbance ratio was used to compute reaction progress.
# On the % scale 0 is the no-effect control and ±100 the full control effect.
row,Structure (SMILES),"activity change, negative = inhibition"
1,Cc1nc2ccc3ccccc3c2s1.O=[N+]([O-])c1cc([N+](=O)[O-])c(O)c([N+](=O)[O-])c1,inactive: -25.8%
2,CN1CCCCC1COC(=O)C1(O)c2ccccc2CCc2ccccc21 (stereo not given),inactive: 2.33%
3,COc1ccccc1OP(C)(=O)Nc1c(C)cccc1C (stereo not given),inactive: -4.13%
4,CP(=O)(Nc1ccc(SC(F)(F)F)cc1)Oc1ccccc1 (stereo not given),inactive: 1.9%
5,O=[N+]([O-])c1cccc([N+](=O)[O-])c1,inactive: -1.22%
6,CC1=NCCc2c1[nH]c1ccccc21.O=[N+]([O-])c1cc([N+](=O)[O-])c(O)c([N+](=O)[O-])c1,inactive: -1.62%
7,Cc1ccc([N+](=O)[O-])cc1[N+](=O)[O-],inactive: -5.58%
8,O=[N+]([O-])OCC(CO[N+](=O)[O-])(CO[N+](=O)[O-])CO[N+](=O)[O-],inactive: -0.386% [at 0.00818 µM]
9,CCOC(=O)c1ccc(NP(C)(=O)Oc2cc(C)cc(C)c2)cc1 (stereo not given),inactive: -2.19%
10,Cc1cc(C)cc(OP(C)(=O)Nc2ccc(C)cc2C)c1 (stereo not given),inactive: -11.2%
11,Cc1ccc(C)c(NP(C)(=O)Oc2ccccc2)c1 (stereo not given),inactive: -5.04%
12,Cc1cc(C)cc(OP(C)(=O)Nc2ccccn2)c1 (stereo not given),inactive: 2.85%
13,O=[N+]([O-])[O-].[NH4+],inactive: 2.48%
14,CC(C)(C)c1ccc(OP(C)(=O)Nc2ccc(SC(F)(F)F)cc2)cc1 (stereo not given),inactive: 1.46%
15,Cc1ccc(NP(C)(=O)Oc2ccccc2)c(C)c1 (stereo not given),inactive: 6.01%
16,COc1ccccc1OP(C)(=O)Nc1ccc(C)cc1 (stereo not given),inactive: -4.37%
17,CCOC(=O)c1ccc(NP(C)(=O)Oc2ccccc2)cc1 (stereo not given),inactive: -1.87%
18,COc1ccc(OP(C)(=O)Nc2cccc(F)c2)cc1 (stereo not given),inactive: 6.97%
19,N1=C(c2nnc(-c3nn[nH]n3)nn2)NNN1,inactive: -2.1% [at 11.4 µM]
20,CP(=S)(Nn1cnnc1)Oc1ccccc1 (stereo not given),inactive: -5.24%
21,CP(=O)(Nc1ccccc1Br)Oc1ccccc1 (stereo not given),inactive: -1.47%
22,Cc1cccc(C)c1OP(C)(=O)Nc1ccc(SC(F)(F)F)cc1 (stereo not given),inactive: -4.64%

row,Structure (SMILES),"activity change, negative = inhibition"
1,Cc1cc(C)cc(OP(C)(=O)Nc2ccc(SC(F)(F)F)cc2)c1 (stereo not given),inactive: -5.28%
2,CP(=O)(NC(=O)Nc1ccccc1)Oc1ccccc1 (stereo not given),inactive: -4.47%
3,CCOC(=O)c1ccc(NP(C)(=O)Oc2ccc(OC)cc2)cc1 (stereo not given),inactive: -4.44%
4,CCOP(C)(=S)SCC(=O)NC(C)C(=O)O (stereo not given),inactive: 8.07%
5,CP(=O)(Nc1ccccn1)Oc1ccc(Cl)cc1 (stereo not given),inactive: -6.3%
6,COc1ccc(OP(C)(=O)Nc2ccc(Br)cc2)cc1 (stereo not given),inactive: -3.77%
7,CCN(CC)CC(O)COC(=O)C(O)(c1ccccc1)C1CCCCC1 (stereo not given),inactive: 3.04%
8,N#[O+].[C-]#N.[C-]#N.[C-]#N.[C-]#N.[C-]#N.[Fe+2].[Na+].[Na+],inactive: -4.3%
9,OCCSCCO,inactive: -1.1%
10,COc1ccccc1OP(C)(=O)Nc1c(C)n(C)n(-c2ccccc2)c1=O (stereo not given),inactive: 3.17%
11,CP(=O)(Oc1ccccc1)N1CCOC1=O (stereo not given),inactive: -3.58%
12,CC(C)(C)c1ccc(OP(C)(=O)O)cc1,inactive: 3.87%
13,CP(=O)(Nc1ccc(Cl)cc1)Oc1ccc(F)cc1 (stereo not given),inactive: -1.03%
14,CCOC(=O)c1ccc(NP(C)(=O)Oc2ccc(Cl)cc2)cc1 (stereo not given),inactive: -2.1%
15,CP(=O)(OC12CC3CC(CC(C3)C1)C2)OC12CC3CC(CC(C3)C1)C2,inactive: 8.34%
16,C/C1=C2N=C(/C=C3N=C(/C(C)=C4\[N-][C@@](C)([C@H]5N=C1[C@@](C)(CCC(=O)NC[C@H](C)OP(=O)([O-])O[C@@H]1[C@H](O)[C@H](n6cnc7cc(C)c(C)cc76)O[C@@H]1CO)[C@@H]5CC(N)=O)[C@](C)(CC(N)=O)[C@H]4CCC(N)=O)[C@@](C)(CC(N)=O)[C@@H]\3CCC(N)=O)C(C)(C)[C@@H]/2CCC(N)=O.[C-]#N.[Co+3],inactive: -1.61% [at 25.6 µM]
17,COc1ccccc1OP(C)(=O)Nc1ccc(C)c(C)c1 (stereo not given),inactive: -6.7%
18,COc1ccc(OP(C)(=O)Nc2ccccc2Br)cc1 (stereo not given),inactive: -3.81%
19,COc1ccc(OP(C)(=O)Nc2ccccn2)cc1 (stereo not given),inactive: -1.02%
20,CN(C)CCOC(=O)C(O)(c1ccccc1)C1CCCC1 (stereo not given),inactive: -0.364%
21,Cc1c(NP(C)(=O)Oc2ccc(C(C)C)cc2)c(=O)n(-c2ccccc2)n1C (stereo not given),inactive: -7.61%
22,COc1ccccc1OP(C)(=O)Nc1ccc(C)cc1C (stereo not given),inactive: -1.79%

row,Structure (SMILES),"activity change, negative = inhibition"
1,CP(=O)(Nc1ccccn1)Oc1ccccc1 (stereo not given),inactive: 5.46%
2,CCc1ccc(OP(C)(=O)O)cc1,inactive: -1.84%
3,CP(=O)(Nc1ccccc1F)Oc1ccccc1 (stereo not given),inactive: -4.98%
4,CC(C)c1ccc(OP(C)(=O)Nc2ccc(SC(F)(F)F)cc2)cc1 (stereo not given),inactive: -1.72%
5,O=C(OCCN1CCN(CCOCc2ccccc2)CC1)C(O)(c1ccccc1)c1ccccc1,inactive: -3.41%
6,Cc1cccc([N+](=O)[O-])c1[N+](=O)[O-],inactive: -2.59%
7,CCC(C)(OO)OOC(C)(CC)OO (stereo not given),inactive: 0.803%
8,CCOC(=O)c1ccc(NP(C)(=O)Oc2ccc(F)cc2)cc1 (stereo not given),inactive: -7.69%
9,CCN(CC)CCCOC(=O)C(O)(c1ccccc1)C1CCCCC1 (stereo not given),inactive: 7.18%
10,CP(=O)(Nc1ccccc1)Oc1ccc(F)cc1 (stereo not given),inactive: 4.64%
11,COc1ccc(OP(C)(=O)Nc2cccc(Br)c2)cc1 (stereo not given),inactive: -7.81%
12,CN(C)CCOC(=O)C(O)(c1ccccc1)C1CCCCC1 (stereo not given),inactive: 1.3%
13,Cc1c([N+](=O)[O-])cccc1[N+](=O)[O-],inactive: -0.963%
14,Cc1ccc([N+](=O)[O-])c([N+](=O)[O-])c1,inactive: -1.16%
15,CCOP(C)(=S)SCC(=O)NC(C)(CC)C(=O)O (stereo not given),inactive: 7.54%
16,CCOP(=O)(CC)OCC,inactive: 2.31%
17,CP(=O)(Nc1ccc2c(c1)OCCO2)Oc1ccccc1 (stereo not given),inactive: 1.3%
18,[NH4+].[O-][Cl+3]([O-])([O-])[O-],inactive: 2.77%
19,Cc1ccccc1NP(C)(=O)Nc1ccccc1C,inactive: -0.521%
20,CCN(CCCl)Cc1ccccc1C,inactive: 6.23%
21,NNC(NN)NN.n1nc(-c2nn[nH]n2)n[nH]1,inactive: -9.02% [at 11.4 µM]
